IC50 data for 41 compounds are collected here from US20040266784A1, “Calcium channel inhibitors comprising benzhydril spaced from piperazine” (priority 1998, published 2004).

Sequences of proteins named here, by UniProt entry; tags and fusion partners are left off. A change or cut given only in a name is not applied to a line headed by its entry. Residues count along the entry.
UniProt Q02294, whole entry: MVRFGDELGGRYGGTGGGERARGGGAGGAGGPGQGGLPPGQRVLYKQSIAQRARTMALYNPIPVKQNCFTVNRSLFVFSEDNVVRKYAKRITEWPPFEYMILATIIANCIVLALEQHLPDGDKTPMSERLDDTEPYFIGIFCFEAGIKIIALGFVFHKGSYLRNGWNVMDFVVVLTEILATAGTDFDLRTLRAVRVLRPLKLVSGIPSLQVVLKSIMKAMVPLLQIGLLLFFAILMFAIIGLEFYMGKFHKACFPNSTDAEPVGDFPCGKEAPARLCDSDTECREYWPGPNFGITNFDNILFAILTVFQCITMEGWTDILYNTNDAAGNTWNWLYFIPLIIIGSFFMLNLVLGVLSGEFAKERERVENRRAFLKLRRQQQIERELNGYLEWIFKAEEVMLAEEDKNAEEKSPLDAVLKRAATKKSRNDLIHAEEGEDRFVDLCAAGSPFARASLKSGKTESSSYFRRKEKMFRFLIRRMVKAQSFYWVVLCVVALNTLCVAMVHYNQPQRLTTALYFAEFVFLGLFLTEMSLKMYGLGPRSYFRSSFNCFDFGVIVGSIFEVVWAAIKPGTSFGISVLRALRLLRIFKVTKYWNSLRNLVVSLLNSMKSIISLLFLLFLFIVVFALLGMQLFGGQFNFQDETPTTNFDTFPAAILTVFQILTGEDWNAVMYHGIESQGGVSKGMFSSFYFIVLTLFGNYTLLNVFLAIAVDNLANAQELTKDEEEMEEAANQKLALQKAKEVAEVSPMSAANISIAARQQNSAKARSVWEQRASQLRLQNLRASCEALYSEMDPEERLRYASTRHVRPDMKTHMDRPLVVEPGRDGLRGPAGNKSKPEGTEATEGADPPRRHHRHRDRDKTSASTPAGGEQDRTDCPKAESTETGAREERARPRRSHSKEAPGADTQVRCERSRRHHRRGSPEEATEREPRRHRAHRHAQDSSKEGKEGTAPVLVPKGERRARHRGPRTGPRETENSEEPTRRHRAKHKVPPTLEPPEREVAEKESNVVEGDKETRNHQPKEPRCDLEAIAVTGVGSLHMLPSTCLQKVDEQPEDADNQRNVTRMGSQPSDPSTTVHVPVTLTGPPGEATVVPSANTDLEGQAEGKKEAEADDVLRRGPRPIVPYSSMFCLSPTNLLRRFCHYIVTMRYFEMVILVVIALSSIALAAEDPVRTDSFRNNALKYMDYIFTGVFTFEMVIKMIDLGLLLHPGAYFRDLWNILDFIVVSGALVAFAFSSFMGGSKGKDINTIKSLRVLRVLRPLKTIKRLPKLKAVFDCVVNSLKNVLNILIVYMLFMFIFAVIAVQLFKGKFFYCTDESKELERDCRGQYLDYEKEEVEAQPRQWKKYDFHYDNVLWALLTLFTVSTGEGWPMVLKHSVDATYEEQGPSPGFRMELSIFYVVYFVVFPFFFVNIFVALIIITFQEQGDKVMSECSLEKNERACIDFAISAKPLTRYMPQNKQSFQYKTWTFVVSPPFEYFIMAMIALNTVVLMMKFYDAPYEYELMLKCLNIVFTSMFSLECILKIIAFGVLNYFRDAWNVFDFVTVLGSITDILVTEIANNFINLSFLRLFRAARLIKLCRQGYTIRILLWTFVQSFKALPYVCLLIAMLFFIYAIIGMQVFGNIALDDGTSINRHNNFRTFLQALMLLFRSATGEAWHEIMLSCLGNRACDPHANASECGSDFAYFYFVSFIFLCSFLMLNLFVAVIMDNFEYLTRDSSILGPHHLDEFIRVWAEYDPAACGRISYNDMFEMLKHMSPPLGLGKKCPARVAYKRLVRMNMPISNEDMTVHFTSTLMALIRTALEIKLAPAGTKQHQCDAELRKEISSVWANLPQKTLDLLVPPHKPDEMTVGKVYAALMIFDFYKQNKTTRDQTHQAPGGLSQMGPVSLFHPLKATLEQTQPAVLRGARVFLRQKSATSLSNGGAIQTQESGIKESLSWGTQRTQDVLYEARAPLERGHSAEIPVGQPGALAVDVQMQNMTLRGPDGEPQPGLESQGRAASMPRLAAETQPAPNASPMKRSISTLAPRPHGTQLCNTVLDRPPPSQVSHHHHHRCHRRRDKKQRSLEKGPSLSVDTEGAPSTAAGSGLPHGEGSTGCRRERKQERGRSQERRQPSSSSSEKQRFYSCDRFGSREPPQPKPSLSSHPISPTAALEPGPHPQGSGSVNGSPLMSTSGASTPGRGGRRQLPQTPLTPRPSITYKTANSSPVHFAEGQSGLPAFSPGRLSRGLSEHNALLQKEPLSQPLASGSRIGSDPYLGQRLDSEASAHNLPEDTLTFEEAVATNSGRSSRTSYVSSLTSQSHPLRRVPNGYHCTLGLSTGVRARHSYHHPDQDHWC
UniProt P54283, whole entry partner: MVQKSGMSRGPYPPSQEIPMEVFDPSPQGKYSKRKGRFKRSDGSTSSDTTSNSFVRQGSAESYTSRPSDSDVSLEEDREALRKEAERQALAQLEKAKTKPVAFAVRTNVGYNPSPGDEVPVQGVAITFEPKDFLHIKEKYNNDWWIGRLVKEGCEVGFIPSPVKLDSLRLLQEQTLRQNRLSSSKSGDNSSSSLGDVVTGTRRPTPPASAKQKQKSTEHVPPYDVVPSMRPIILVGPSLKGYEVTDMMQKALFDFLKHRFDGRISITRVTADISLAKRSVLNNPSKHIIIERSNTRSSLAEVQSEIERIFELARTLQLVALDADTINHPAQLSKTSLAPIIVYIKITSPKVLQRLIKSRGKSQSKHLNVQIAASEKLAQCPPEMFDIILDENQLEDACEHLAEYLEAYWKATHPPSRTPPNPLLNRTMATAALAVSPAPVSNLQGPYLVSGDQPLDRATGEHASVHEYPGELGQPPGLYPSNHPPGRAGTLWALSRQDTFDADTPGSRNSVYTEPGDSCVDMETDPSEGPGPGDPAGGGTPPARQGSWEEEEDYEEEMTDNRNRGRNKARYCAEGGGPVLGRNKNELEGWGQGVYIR
UniProt P54290, 25-944 partner limits assumed: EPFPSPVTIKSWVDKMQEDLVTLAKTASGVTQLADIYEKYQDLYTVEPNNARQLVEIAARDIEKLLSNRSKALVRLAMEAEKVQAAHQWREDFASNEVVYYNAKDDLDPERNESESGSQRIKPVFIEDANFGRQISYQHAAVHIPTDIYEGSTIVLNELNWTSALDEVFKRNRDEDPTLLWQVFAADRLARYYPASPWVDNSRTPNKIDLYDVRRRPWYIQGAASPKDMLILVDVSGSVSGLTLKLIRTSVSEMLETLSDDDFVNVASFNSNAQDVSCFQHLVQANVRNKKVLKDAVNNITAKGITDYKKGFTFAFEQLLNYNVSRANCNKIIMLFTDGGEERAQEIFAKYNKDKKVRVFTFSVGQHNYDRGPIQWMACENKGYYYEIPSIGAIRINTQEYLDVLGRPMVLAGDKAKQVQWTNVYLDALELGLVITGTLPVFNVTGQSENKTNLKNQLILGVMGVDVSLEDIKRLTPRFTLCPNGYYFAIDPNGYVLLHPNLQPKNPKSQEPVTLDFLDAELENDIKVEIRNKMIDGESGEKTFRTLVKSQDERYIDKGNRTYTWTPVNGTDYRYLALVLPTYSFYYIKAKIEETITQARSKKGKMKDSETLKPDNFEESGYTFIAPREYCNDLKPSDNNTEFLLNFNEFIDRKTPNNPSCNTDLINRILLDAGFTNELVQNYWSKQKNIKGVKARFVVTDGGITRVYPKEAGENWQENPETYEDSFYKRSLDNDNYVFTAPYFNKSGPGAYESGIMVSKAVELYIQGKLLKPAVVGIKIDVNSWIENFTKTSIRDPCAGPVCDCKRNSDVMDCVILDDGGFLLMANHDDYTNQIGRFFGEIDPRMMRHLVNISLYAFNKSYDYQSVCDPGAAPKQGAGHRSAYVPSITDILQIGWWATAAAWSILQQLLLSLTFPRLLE
UniProt P54290, 945-1091 partner limits assumed: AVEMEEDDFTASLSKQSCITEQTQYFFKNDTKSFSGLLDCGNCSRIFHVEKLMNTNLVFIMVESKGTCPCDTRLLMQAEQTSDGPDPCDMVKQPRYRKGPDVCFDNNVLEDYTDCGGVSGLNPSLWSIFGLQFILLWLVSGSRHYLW

The target in this assay is rat N-type channels (α1B+α2δ+β1b subunits) (Rattus norvegicus, UniProt Q02294). The experiment in a line: Whole cell patch clamp, N-type calcium channel block in HEK 293 cells. It counts as cell-based. On the technique in general: The patch-clamp technique gives a direct electrical read-out from membranes.
Setting [1] is: read-out: IC50 for N-type Calcium Channel Block (0.067 Hz), 0.067 Hz.
[2] abbreviates: read-out: IC50 for N-type Calcium Channel Block (0.2 Hz), 0.2 Hz.
The mark [3] stands for this setting: read-out: IC50 for N-type Calcium Channel Block (0.067 Hz), 0.067 Hz, tested form: 2HCl.
The mark [4] stands for this setting: read-out: IC50 for N-type Calcium Channel Block (0.2 Hz), 0.2 Hz, tested form: 2HCl.
The mark [5] stands for this setting: read-out: IC50 for N-type Calcium Channel Block (0.067 Hz), 0.067 Hz, tested form: 3HCl.
Setting [6] is: read-out: IC50 for N-type Calcium Channel Block (0.2 Hz), 0.2 Hz, tested form: 3HCl.
[7] abbreviates: read-out: IC50 for N-type Calcium Channel Block (0.067 Hz), 0.067 Hz, tested form: HCl.
Where [8] appears, read: read-out: IC50 for N-type Calcium Channel Block (0.2 Hz), 0.2 Hz, tested form: HCl.

pIC50: −log10 of the molar value. Where two headings read alike, the source gives them in different places.

Broadly, the pIC50 is −log10 of the IC50, conventionally taken in molar units. `Fc1ccc(C(CCCCCN2CCN(C3c4ccccc4Sc4ccccc43)CC2)c2ccc(F)cc2)cc1`: the pIC50 is, setting by setting: under setting [1], 6.91; under setting [2], 7.00. On the same counts, the results for `COc1c(C(C)(C)C)cc(C(=O)N2CCN(CCCCCC(c3ccc(F)cc3)c3ccc(F)cc3)CC2)cc1C(C)(C)C` are 6.74 and 6.98. Consider `COc1ccc(OCCN2CCN(CCCCCC(c3ccc(F)cc3)c3ccc(F)cc3)CC2)cc1`, for which the pIC50 is 6.77 under setting [3] and 7.04 under setting [4]. Take `COc1c(C(C)(C)C)cc(CN2CCN(CCCCCC(c3ccc(F)cc3)c3ccc(F)cc3)CC2)cc1C(C)(C)C`: the pIC50 under setting [3] was 6.88 and the pIC50 under setting [4] is 7.00.

With `CN(C)CCOc1c(C(C)(C)C)cc(CN2CCN(CCCCCC(c3ccc(F)cc3)c3ccc(F)cc3)CC2)cc1C(C)(C)C`, the negative-log IC50 (pIC50) under setting [5] is 7.09 and the pIC50 under setting [6] was 7.39. As to `O=C(CCCC(c1ccc(F)cc1)c1ccc(F)cc1)CN1CCN(C(=O)c2ccc(OC(F)(F)F)cc2)CC1`, the negative-log IC50 (pIC50) runs as follows: under setting [1], 6.42; under setting [2], 6.62.

As to `O=C(CCCCC(c1ccc(F)cc1)c1ccc(F)cc1)N1CCN(CCOc2ccc(F)cc2F)CC1`, the pIC50 was 6.70 under setting [7] and 7.03 under setting [8].

As to `COc1cc(CN2CCN(CCCCOC(c3ccc(F)cc3)c3ccc(F)cc3)CC2)cc(OC)c1OC`, the pIC50 was 6.24 under setting [3] and 6.48 under setting [4]. Regarding `O=C(CCCCC(c1ccc(F)cc1)c1ccc(F)cc1)N1CCN(c2ncccn2)CC1`, the pIC50 is 6.44 under setting [7] and 6.59 under setting [8]. Consider `O=C(CCCCC(c1ccc(F)cc1)c1ccc(F)cc1)N1CCN(C2c3ccccc3Sc3ccccc32)CC1`, for which the pIC50 was 6.39 under setting [1] and 6.53 under setting [2]. Taken in the same sequence, the figures for `COc1cc(CN2CCN(CCCCCC(c3ccc(F)cc3)c3ccc(F)cc3)CC2=O)cc(OC)c1OC` were 6.82 and 7.07. As for `Fc1ccc(C(CCCCCN2CCN(CCNc3ccccc3)CC2)c2ccc(F)cc2)cc1`, the pIC50 is 6.55 under setting [5] and 6.76 under setting [6].

As for `COc1cc(CNCCN2CCN(C(=O)CCCCC(c3ccc(F)cc3)c3ccc(F)cc3)CC2)cc(OC)c1OC`, the negative logarithm of the IC50 (pIC50) runs as follows: under setting [1], 6.75; under setting [2], 6.85. `COc1cc(C(=O)N2CCN(CCCCCC(c3ccc(F)cc3)c3ccc(F)cc3)C(=O)C2)cc(OC)c1OC`: the negative-log IC50 (pIC50) under setting [1] is 6.59. As to `Fc1ccc(C(CCCCCN2CCN(CCOc3ccccc3)CC2)c2ccc(F)cc2)cc1`, the negative-log IC50 (pIC50) is 6.40 under setting [1] and 6.57 under setting [2].

For `O=C(CCCCC(c1ccc(F)cc1)c1ccc(F)cc1)N1CCN(CCOc2ccc(Cl)cc2Cl)CC1`, the pIC50 under setting [1] was 6.35 and the pIC50 under setting [2] was 6.77. On to `CN(C)CCOc1c(C(C)(C)C)cc(C(=O)N2CCN(C(=O)CCCCC(c3ccc(F)cc3)c3ccc(F)cc3)CC2)cc1C(C)(C)C`, for which the pIC50 by setting is: under setting [1], 6.46; under setting [2], 6.87. Taken in the same sequence, the figures for `O=C(CCCCC(c1ccc(F)cc1)c1ccc(F)cc1)N1CCN(CCOc2ccccc2)CC1` were 6.77 and 6.96. As for `COc1cc(CN2CCN(C(=O)CCCCCCCC(c3ccc(F)cc3)c3ccc(F)cc3)CC2)cc(OC)c1OC`, the pIC50 is, setting by setting: under setting [7], 6.60; under setting [8], 6.80. On to `COc1c(C(C)(C)C)cc(C(=O)N2CCN(C(=O)CCCCC(c3ccc(F)cc3)c3ccc(F)cc3)C(=O)C2)cc1C(C)(C)C`, for which the pIC50 by setting is: under setting [1], 6.21; under setting [2], 6.39. On to `O=C(CCCCC(c1ccc(F)cc1)c1ccc(F)cc1)N1CCN(CCSc2ccccc2)CC1`, for which the pIC50 reads like this: under setting [1], 6.90; under setting [2], 7.22. On the same counts, the results for `Fc1ccc(C(CCCCCN2CCN(CCOc3ccc(Cl)cc3Cl)CC2)c2ccc(F)cc2)cc1` are 6.22 and 6.45. Turning to `Fc1ccc(C(CCCCCN2CCN(CCSc3ccccc3)CC2)c2ccc(F)cc2)cc1`, the pIC50 was 6.82 under setting [1] and 7.05 under setting [2]. In the case of `COc1cc(OCCN2CCN(C(=O)CCCCC(c3ccc(F)cc3)c3ccc(F)cc3)CC2)cc(OC)c1OC`, the pIC50 is 6.28 under setting [7] and 6.57 under setting [8]. On to `CC(C)(C)c1ccc(CN2CCN(CCCCCC(c3ccc(F)cc3)c3ccc(F)cc3)CC2)cc1`, for which the pIC50 was 6.13 under setting [3] and 6.45 under setting [4].

On to `Cc1cc(OCCN2CCN(CCCCCC(c3ccc(F)cc3)c3ccc(F)cc3)CC2)c(C)c(C)c1N`, for which the pIC50 is, setting by setting: under setting [5], 6.32; under setting [6], 6.47. As to `Fc1ccc(C(CCCCCN2CCN(Cc3ccc4c(c3)OCO4)CC2)c2ccc(F)cc2)cc1`, the pIC50 runs as follows: under setting [3], 6.74; under setting [4], 6.87.

Take `Cc1cc(OCCN2CCN(C(=O)CCCCC(c3ccc(F)cc3)c3ccc(F)cc3)CC2)c(C)c(C)c1NC(=O)OC(C)(C)C`: the negative-log IC50 (pIC50) was 6.43 under setting [1] and 6.51 under setting [2]. Taken in the same sequence, the figures for `O=C(CCCCC(c1ccc(F)cc1)c1ccc(F)cc1)N1CCN(C(=O)c2cc(Br)c(O)c(Br)c2)CC1` were 6.62 and 6.72. Consider `O=C(CCCCC(c1ccc(F)cc1)c1ccc(F)cc1)N1CCN(C(=O)c2ccc(Br)cc2)CC1`, for which the pIC50 under setting [1] was 6.51 and the negative logarithm of the IC50 (pIC50) under setting [2] was 6.60. In the case of `COc1cc(C(=O)N2CCN(CCCCOC(c3ccc(F)cc3)c3ccc(F)cc3)CC2)cc(OC)c1OC`, the negative logarithm of the IC50 (pIC50) reads like this: under setting [7], 6.44; under setting [8], 6.63. With `CC(C)(C)c1cc(CN2CCN(CCCCCC(c3ccc(F)cc3)c3ccc(F)cc3)CC2)cc(C(C)(C)C)c1O`, the negative-log IC50 (pIC50) under setting [3] is 7.21 and the pIC50 under setting [4] was 7.36. In the case of `CC(C)(C)c1cc(CN2CCN(C(=O)CCCCC(c3ccc(F)cc3)c3ccc(F)cc3)CC2)cc(C(C)(C)C)c1O`, the pIC50 was 6.52 under setting [1] and 6.76 under setting [2]. Consider `CC(C)(C)c1cc(CN2CCN(CCCCCC(c3ccc(F)cc3)c3ccc(F)cc3)CC2)cc(C(C)(C)C)c1`, for which the pIC50 runs as follows: under setting [3], 6.74; under setting [4], 6.85.

Take `Fc1ccc(C(CCCCCN2CCN(CCOc3ccc(F)cc3F)CC2)c2ccc(F)cc2)cc1`: the pIC50 was 7.02 under setting [1] and 7.29 under setting [2]. Regarding `COc1ccc(OCCN2CCN(C(=O)CCCCC(c3ccc(F)cc3)c3ccc(F)cc3)CC2)cc1`, the pIC50 reads like this: under setting [7], 6.36; under setting [8], 6.59. In the case of `Fc1ccc(C(CCCCCN2CCN(c3ncccn3)CC2)c2ccc(F)cc2)cc1`, the pIC50 is 6.47 under setting [3] and 6.57 under setting [4]. `COc1c(C(C)(C)C)cc(CN2CCN(C(=O)CCCCC(c3ccc(F)cc3)c3ccc(F)cc3)CC2)cc1C(C)(C)C`: the negative-log IC50 (pIC50) runs as follows: under setting [1], 6.72; under setting [2], 7.01. Turning to `Fc1ccc(OCCN2CCN(CCCCCC(c3ccc(F)cc3)c3ccc(F)cc3)CC2)cc1`, the negative-log IC50 (pIC50) was 6.95 under setting [1] and 7.15 under setting [2]. As for `O=C(CCCCC(c1ccc(F)cc1)c1ccc(F)cc1)N1CCN(CCSc2nc3ccccc3s2)CC1`, the pIC50 by setting is: under setting [1], 6.37; under setting [2], 6.55.

`CC(C)(C)c1cc(C(=O)N2CCN(C(=O)CCCCC(c3ccc(F)cc3)c3ccc(F)cc3)CC2)cc(C(C)(C)C)c1`: the negative logarithm of the IC50 (pIC50) was 6.45 under setting [1] and 6.53 under setting [2].
